Experimental findings from patent publication US6156789A, “Method for treating abnormal cell proliferation in the brain” (Rhone-Poulenc Rorer S.A., priority 1998, dated 2000) are described below.

Molecules are shown by their SMILES.

This assay has as its system mdr 1. Description: Recognition by mdr 1 / multi-drug resistance properties.

Turning to `CC(=O)O[C@H]1C(=O)[C@]23C[C@H]2C[C@H]2OC[C@@]2(OC(C)=O)[C@H]3[C@H](OC(=O)c2ccccc2)[C@]2(O)C[C@H](OC(=O)[C@H](O)[C@@H](NC(=O)c3ccccc3)c3ccccc3)C(C)=C1C2(C)C`, the “multi-drug resistance properties compared with Taxol and Taxotere” value is “better multi-drug resistance properties than Taxol® and Taxotere®”.
